Measurements as given in PMC2799460 (Environmental Health Perspectives, 2009).

Sequences of proteins named here, by UniProt entry; tags and fusion partners are left off. A change or cut given only in a name is not applied to a line headed by its entry.
UniProt Q15165: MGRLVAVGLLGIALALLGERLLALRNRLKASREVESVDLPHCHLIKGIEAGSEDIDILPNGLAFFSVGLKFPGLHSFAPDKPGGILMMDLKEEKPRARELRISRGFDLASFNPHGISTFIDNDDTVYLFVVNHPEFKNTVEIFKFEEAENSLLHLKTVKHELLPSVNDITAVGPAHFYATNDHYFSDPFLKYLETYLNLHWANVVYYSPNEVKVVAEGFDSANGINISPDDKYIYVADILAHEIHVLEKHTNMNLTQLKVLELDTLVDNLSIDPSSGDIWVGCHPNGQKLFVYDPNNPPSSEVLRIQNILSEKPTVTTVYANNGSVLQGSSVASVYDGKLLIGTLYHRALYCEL
UniProt P11716: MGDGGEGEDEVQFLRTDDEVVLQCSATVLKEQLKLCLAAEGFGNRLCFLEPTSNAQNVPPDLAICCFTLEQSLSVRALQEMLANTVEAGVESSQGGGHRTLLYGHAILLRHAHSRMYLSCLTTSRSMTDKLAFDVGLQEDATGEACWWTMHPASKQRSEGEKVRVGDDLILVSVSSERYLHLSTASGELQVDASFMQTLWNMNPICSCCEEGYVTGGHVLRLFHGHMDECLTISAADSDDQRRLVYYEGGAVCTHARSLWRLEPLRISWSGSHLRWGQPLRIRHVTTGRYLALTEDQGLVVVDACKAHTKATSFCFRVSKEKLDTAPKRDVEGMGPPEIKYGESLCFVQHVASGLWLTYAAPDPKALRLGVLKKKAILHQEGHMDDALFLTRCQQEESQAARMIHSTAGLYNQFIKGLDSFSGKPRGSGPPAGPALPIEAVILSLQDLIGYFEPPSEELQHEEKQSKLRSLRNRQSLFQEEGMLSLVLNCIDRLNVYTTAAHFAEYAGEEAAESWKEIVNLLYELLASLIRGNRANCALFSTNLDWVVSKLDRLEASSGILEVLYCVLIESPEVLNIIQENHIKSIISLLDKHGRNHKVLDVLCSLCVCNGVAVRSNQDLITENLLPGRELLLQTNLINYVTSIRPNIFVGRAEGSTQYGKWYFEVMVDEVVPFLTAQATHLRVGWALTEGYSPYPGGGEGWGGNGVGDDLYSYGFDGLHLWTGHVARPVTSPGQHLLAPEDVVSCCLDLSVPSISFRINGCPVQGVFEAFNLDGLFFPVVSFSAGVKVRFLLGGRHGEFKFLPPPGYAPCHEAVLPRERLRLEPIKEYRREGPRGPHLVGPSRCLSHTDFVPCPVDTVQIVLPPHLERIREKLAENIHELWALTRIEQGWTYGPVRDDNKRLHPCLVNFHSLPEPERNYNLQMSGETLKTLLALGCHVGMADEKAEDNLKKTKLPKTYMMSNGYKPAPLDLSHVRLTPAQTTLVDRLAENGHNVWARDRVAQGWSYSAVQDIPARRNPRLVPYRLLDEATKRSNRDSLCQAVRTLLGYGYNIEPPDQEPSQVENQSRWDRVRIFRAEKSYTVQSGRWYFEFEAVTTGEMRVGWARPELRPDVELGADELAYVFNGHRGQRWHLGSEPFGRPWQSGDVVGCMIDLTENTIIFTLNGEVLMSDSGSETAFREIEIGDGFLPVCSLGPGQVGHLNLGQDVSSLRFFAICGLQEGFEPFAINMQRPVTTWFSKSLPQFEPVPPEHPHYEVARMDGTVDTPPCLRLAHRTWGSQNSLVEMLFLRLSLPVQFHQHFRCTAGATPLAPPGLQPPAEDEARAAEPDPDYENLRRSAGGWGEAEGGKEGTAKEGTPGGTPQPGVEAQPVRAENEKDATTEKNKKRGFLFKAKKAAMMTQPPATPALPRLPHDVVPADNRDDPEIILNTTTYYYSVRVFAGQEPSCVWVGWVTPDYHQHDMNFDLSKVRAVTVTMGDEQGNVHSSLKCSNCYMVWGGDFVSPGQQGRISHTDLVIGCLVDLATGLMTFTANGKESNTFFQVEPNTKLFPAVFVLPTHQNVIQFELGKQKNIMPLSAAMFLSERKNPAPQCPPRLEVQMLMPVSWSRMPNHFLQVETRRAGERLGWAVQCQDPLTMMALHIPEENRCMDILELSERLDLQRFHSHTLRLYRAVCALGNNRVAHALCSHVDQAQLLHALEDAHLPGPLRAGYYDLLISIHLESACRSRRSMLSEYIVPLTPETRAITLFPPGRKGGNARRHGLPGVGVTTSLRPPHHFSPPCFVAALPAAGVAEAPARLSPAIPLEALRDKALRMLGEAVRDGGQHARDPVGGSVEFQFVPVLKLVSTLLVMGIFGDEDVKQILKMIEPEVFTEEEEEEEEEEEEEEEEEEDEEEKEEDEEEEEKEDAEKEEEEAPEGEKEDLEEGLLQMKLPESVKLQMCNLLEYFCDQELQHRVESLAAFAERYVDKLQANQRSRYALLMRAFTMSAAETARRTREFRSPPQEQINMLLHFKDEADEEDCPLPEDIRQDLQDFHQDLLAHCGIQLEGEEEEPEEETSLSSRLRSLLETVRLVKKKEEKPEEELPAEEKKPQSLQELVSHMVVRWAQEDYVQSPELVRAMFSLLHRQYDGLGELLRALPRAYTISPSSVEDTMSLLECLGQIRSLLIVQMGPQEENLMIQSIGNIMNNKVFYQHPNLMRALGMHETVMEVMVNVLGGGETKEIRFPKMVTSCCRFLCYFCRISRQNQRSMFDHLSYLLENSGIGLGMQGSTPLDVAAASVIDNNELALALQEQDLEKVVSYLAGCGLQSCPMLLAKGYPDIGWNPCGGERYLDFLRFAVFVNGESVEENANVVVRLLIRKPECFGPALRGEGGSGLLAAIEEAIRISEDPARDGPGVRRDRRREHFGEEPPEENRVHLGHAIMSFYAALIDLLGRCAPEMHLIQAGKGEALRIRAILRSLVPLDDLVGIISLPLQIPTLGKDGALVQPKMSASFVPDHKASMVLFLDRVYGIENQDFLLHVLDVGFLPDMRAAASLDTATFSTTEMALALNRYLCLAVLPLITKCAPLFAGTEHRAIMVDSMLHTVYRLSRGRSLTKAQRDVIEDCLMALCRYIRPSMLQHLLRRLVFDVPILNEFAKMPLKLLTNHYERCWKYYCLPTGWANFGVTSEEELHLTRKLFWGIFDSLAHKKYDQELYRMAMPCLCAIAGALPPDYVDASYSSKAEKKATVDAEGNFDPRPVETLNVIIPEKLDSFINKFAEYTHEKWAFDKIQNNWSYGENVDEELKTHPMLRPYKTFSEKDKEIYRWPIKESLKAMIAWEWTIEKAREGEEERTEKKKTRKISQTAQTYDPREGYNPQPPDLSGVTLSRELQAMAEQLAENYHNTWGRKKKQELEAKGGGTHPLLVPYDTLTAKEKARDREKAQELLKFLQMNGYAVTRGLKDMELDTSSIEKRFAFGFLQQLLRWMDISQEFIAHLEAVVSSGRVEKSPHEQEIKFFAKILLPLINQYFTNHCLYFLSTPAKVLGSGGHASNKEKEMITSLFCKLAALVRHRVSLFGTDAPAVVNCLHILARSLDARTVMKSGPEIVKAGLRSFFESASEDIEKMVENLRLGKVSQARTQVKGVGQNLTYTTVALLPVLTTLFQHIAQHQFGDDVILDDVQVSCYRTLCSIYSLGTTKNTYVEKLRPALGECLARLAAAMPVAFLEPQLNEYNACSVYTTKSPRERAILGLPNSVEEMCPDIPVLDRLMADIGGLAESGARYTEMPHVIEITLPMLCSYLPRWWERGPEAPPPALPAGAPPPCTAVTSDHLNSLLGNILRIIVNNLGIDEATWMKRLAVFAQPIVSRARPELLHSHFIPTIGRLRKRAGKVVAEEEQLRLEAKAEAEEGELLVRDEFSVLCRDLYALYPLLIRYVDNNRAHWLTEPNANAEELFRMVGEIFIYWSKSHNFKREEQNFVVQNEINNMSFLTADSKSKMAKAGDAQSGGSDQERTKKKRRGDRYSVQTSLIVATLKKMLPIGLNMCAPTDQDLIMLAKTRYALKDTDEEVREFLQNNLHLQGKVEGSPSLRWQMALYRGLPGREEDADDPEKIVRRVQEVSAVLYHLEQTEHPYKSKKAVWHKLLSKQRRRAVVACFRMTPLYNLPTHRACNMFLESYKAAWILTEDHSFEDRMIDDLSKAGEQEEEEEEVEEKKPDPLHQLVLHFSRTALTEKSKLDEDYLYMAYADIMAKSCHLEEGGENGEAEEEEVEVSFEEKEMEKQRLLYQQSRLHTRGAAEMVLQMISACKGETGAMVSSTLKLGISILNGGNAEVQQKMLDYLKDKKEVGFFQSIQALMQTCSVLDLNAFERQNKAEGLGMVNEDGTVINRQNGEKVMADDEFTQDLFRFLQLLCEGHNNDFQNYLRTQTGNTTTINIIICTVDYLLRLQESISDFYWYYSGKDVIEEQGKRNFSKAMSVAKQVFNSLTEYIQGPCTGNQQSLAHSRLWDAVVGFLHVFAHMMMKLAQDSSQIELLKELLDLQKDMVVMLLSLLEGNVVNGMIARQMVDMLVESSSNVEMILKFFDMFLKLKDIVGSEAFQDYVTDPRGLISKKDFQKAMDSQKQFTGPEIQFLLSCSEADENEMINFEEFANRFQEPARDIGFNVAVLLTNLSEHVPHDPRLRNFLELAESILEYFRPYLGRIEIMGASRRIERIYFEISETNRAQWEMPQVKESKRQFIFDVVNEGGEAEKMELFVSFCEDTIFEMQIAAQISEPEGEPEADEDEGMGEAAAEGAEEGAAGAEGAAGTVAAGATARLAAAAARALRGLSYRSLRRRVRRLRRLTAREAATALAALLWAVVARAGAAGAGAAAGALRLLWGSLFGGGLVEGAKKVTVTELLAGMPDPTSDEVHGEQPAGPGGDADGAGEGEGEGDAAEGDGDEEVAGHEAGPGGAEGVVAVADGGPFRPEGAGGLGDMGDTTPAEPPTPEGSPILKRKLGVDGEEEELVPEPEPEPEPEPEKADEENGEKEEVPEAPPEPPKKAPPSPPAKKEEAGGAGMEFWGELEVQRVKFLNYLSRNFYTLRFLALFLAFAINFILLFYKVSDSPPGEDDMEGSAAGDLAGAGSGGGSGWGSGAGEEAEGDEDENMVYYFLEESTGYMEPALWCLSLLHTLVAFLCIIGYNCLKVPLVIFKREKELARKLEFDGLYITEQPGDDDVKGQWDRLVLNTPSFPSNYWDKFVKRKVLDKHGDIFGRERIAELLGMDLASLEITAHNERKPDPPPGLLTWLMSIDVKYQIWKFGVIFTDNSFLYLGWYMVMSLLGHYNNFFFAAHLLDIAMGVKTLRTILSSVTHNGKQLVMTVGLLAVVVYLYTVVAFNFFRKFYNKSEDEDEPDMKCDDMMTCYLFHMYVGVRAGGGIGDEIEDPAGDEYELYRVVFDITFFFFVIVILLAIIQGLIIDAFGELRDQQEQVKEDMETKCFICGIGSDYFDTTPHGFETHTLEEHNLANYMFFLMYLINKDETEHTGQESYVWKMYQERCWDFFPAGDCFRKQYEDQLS

Columns and labels:
paraoxonase 2 (PON2) = target: T1, paraoxonase 2 (PON2) (Homo sapiens, UniProt Q15165); assay: biochemical
T1 construct: made in house; host or cells: baculovirus-insect cells (microsomal preparation)

[1] = target: T2, type 1 ryanodine receptor (RyR1) (Oryctolagus cuniculus, UniProt P11716); assay: biochemical; assay type: binding, rabbit
T2 construct: Membranes enriched in ryanodine receptors (RyRs) were obtained either from adult rabbit skeletal muscle; from tissue; host or cells: adult rabbit skeletal muscle membranes

[2] = target: T3, human carboxylesterase CES1 (Homo sapiens, UniProt P23141); assay type: biochemical
T3 construct: made in house; host or cells: baculovirus-insect cells
T3 sequence (P23141 18-567): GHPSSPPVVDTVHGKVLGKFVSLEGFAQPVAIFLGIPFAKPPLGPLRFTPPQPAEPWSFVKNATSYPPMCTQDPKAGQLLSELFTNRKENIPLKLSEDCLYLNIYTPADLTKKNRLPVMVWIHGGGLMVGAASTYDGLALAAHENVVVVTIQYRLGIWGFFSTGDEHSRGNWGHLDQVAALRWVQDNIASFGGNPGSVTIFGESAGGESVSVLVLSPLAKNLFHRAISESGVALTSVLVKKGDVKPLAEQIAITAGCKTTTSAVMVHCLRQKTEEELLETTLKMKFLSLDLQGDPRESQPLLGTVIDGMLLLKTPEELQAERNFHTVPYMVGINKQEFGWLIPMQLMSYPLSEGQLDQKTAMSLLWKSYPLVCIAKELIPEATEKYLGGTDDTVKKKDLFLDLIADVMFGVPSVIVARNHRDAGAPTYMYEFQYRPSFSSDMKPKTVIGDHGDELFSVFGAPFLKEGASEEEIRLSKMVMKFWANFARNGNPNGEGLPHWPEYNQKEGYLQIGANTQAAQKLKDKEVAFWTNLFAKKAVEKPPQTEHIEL

[3] = target: T4, human carboxylesterase CES2 (Homo sapiens, UniProt O00748); assay: biochemical
T4 construct: made in house; host or cells: baculovirus-insect cells
T4 sequence (O00748 27-559): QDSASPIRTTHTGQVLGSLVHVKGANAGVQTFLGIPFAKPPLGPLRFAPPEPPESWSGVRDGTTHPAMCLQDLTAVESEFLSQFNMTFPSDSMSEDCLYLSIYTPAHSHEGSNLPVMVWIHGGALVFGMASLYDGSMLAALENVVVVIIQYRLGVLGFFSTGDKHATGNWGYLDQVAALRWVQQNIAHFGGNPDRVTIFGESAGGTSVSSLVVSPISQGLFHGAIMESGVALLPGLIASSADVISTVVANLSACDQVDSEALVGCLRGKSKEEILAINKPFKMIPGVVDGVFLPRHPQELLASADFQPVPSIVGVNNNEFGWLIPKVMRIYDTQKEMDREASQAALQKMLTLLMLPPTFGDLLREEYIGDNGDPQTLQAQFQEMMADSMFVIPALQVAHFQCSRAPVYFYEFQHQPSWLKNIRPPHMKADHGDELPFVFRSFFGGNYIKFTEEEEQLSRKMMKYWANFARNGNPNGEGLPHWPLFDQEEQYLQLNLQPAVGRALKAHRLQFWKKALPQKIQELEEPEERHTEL

`O=P(Oc1ccccc1)(Oc1ccccc1)Oc1ccccc1` [TPP, triphenyl phosphate] was tested, and the IC50 (paraoxonase 2 (PON2)) was 85 ± 8 nM.
With `CC1(C)[C@H](C(=O)O[C@H](C#N)c2cccc(Oc3ccccc3)c2)[C@@H]1C=C(Br)Br` [deltamethrin] the “effect on [3H]Ry binding to RyR1 (counterscreen)” value [1] was “no significant effect”.
With `CCOP(=S)(OCC)Oc1nc(Cl)c(Cl)cc1Cl` [Chlorpyrifos, chlorpyrifos] the “increase of [3H]Ry binding to RyR1” value [1] was about 3 fold.
`Oc1cc(Cl)ccc1Oc1ccc(Cl)cc1Cl` [Triclosan, triclosan] was tested, and the “mechanism of CES1 inhibition” value [2] was “competitive mechanism” and the IC50 [3] was 580 ± 30 nM.
`ClC(Cl)=C(c1ccc(Cl)cc1)c1ccccc1Cl` [o,p-DDE, dichlorodiphenyldichloroethylene] was tested, and the “increase of [3H]Ry binding to RyR1” value [1] was about 3 fold.
`CC1(C)C(C=C(Cl)Cl)C1C(=O)OC(C#N)c1cccc(Oc2ccccc2)c1` (stereo not drawn) [α-cypermethrin] was tested, and the “effect on [3H]Ry binding to RyR1 (counterscreen)” value [1] was “no significant effect”.
In the case of `CCOP(=S)(OCC)SCSc1ccc(Cl)cc1` [Carbophenothion, carbophenothion], the IC50 (paraoxonase 2 (PON2)) is reported as 110 ± 6 nM.
Work on `CCCCSP(SCCCC)SCCCC` [Tributyl phosphorotrithioite] yielded an IC50 (paraoxonase 2 (PON2)) of 120 ± 10 nM.
With `O=C1C(Cl)=C(Cl)C(=O)C(Cl)=C1Cl` [chloranil] the IC50 [1] was under 1000 nM.
